The entries are a selection whose mix differs from that of the whole data set. Activity calls are given as the source filed them. Rule as the data show it: active = inhibition above about 49%; inactive = the rest.

Protein sequences, listed by entry. Tags and fused reporters are not part of them.
UniProt Q96RJ0, whole entry: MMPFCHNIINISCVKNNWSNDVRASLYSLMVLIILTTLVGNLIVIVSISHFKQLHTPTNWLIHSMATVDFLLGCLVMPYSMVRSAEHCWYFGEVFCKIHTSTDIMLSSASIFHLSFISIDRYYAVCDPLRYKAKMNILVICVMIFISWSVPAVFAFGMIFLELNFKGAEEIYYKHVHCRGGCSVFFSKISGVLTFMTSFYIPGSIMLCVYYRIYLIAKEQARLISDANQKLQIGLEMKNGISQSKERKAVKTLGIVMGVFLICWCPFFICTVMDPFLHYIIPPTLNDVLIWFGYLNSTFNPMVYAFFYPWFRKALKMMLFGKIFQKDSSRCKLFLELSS

The test has as its target Trace amine-associated receptor 1 (Homo sapiens) (UniProt Q96RJ0). Briefly: human TAAR1 antagonists, retest of hits, confirmation, cell-based, fluorescence (AID 651785).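 Also: CHO-Ga16 host cells challenged with agonist PEA near its EC80; 0% = agonist at EC80 plus vehicle and 100% = vehicle with no agonist.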 As to conditions: TAAR1-expressing cells, fluorescence antagonist read-out; at 3 µM; stronger effect = higher value.
On to `O=c1[nH]c2ccccc2n1C1CCN(C(c2cccs2)c2nnnn2C2CCCCC2)CC1` (stereo not drawn), for which the inhibition is inactive: 45.1%.
Take `CCCCn1nnnc1C(c1ccccc1)N1CCC(n2c(=O)[nH]c3ccccc32)CC1` (stereo not drawn): the inhibition is inactive: 44.7%.
The value for `O=c1[nH]c2ccccc2n1C1CCN(C(c2cccs2)c2nnnn2C2CCCC2)CC1` (stereo not drawn) was inactive: 43.5%.
Consider `O=c1[nH]c2ccccc2n1C1CCN(C(c2ccccc2)c2nnnn2C2CCCC2)CC1` (stereo not drawn), for which the inhibition is inactive: 30.2%.
For `O=c1[nH]c2ccccc2n1C1CCN(C(c2ccnc3ccccc23)c2nnnn2C2CCCCC2)CC1` (stereo not drawn), the inhibition was inactive: 45.7%.
As for `COc1cccc(C(c2nnnn2C2CCCC2)N2CCC(n3c(=O)[nH]c4ccccc43)CC2)c1OC` (stereo not drawn), the inhibition is inactive: 46.9%.
`CCCCn1nnnc1C(c1cc2ccccc2o1)N1CCC(n2c(=O)[nH]c3ccccc32)CC1` (stereo not drawn): the inhibition is inactive: 37.5%.
The value for `O=c1[nH]c2ccccc2n1C1CCN(C(c2ccccc2)c2nnnn2C2CCCCC2)CC1` (stereo not drawn) was inactive: 47.5%.

As usually defined, the inhibition is the relative decrease from the control value, in per cent.

The record behind these values is PubChem BioAssay AID651785 (The Scripps Research Institute Molecular Screening Center, 2012).
